Values of other authors in patent publication US8765768B2, “Heterocyclic compounds and their uses” (Amgen Inc., priority 2010, dated 2014).

The chains behind the UniProt entries cited, without tags or fusion partners. Where a name states a change or a piece, a line headed by the entry shows the natural chain unless it says otherwise.
UniProt P42338: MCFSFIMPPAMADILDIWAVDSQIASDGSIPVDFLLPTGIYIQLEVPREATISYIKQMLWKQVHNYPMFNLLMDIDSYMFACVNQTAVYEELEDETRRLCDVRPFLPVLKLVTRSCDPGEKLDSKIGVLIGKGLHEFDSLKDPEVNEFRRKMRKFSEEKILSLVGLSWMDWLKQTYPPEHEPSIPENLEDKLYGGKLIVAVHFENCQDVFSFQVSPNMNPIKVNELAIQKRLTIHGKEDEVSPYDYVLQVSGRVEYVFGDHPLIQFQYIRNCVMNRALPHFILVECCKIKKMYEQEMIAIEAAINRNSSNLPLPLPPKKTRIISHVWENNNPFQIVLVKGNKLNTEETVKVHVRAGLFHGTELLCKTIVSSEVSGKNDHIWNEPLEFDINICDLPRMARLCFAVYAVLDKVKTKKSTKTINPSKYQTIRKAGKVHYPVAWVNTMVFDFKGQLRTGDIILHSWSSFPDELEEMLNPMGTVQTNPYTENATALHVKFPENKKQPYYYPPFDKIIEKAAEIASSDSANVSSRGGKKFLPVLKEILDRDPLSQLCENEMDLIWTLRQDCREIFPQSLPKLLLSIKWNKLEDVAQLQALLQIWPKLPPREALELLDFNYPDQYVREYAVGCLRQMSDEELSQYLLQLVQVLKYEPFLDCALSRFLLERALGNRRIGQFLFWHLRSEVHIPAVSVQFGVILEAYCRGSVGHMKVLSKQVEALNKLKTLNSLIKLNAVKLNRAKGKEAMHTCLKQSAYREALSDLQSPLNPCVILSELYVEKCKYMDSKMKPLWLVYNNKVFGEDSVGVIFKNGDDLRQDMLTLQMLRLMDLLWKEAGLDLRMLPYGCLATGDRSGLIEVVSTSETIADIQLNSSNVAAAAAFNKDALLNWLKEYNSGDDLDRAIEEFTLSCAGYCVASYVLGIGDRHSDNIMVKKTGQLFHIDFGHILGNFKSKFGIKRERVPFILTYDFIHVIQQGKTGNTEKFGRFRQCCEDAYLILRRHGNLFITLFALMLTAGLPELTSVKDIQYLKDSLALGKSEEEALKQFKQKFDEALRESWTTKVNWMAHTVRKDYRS

Biological target: p110β (Homo sapiens, UniProt P42338)
Conditions: on beta; quantity type not given; read-out: potency on beta

- IC50: 7 nM
SMILES: Cc1cc(C(C)Nc2ccccc2)c2nc(N3CCOCC3)cc(=O)n2c1 (stereo not shown) [TGX-221]
